# What was measured:
# in vitro = settings: rat, hepatocytes
# [1] = human, plasma
smiles,measurement,setting,value
C[C@@H]1Cc2c([nH]c3ccccc23)[C@@H](c2c(F)cc(OCCN3CC(CF)C3)cc2F)N1CC(C)(C)F,hepatocyte CLint,in vitro,11 µL/min/1e6 cells
same,Fu,[1],0.23%

# — ChEMBL document CHEMBL4304838, “Building Bridges in a Series of Estrogen Receptor Degraders: An Application of Metathesis in Medicinal Chemistry” (ACS Med Chem Lett, 2019)
